The other results are listed elsewhere or left out.
tested on: A. baumannii ATCC 17978; assay: relative growth (fraction of control); higher = less inhibition; conditions: 50 µM

Structure (SMILES)	relative growth
O=C(CN1CCOCC1)N[C@H]1CC[C@H](CCNC(=O)C2CCC2)O[C@@H]1CO	1.18
COC(=O)c1c(OC)cc2c(c1C)Oc1c(Cl)c(O)c(Cl)c(C)c1C(=O)O2	1.19
O=C(C[C@H]1CC[C@H]2[C@@H](COC[C@@H](O)CN2C(=O)Nc2cccc(F)c2)O1)NCc1ccccc1Cl	0.999
Cc1ccc(S[C@]2(C(=O)NC3CC3)CC(=O)N(C3Cc4ccccc4C3)[C@@H]2c2ccc(CO)cc2I)cc1	0.991
C[C@@H]1CN([C@H](C)CO)S(=O)(=O)c2ccc(-c3ccccc3F)cc2O[C@@H]1CN(C)S(C)(=O)=O	0.983
CC(C)NC(=O)N[C@@H]1C=C[C@@H](CC(=O)O)O[C@@H]1CO	1.01
COc1cc(CNC(=O)CCCC/C=C/C(C)C)ccc1O	0.732
O=C(NCCCN1CCOCC1)c1ccc(Cl)cc1	1.1
CC(C)N1C(=O)C[C@@](C(=O)NCCN2CCOCC2)(c2ccc([N+](=O)[O-])cc2)[C@H]1c1ccc(CO)cc1	0.984
Cl.NC1CCN(c2c(F)cc3c(=O)c(C(=O)O)cn(C4CC4)c3c2Cl)C1 (centres undefined)	0.145
O=C(O)c1c2ccccc2cc2ccccc12	1.11
c1ccc(-c2nc3ccccc3o2)cc1	1.01
C=C1O[C@@](CO)(n2cnc3c(N)ncnc32)[C@H](O)[C@@H]1O	0.288
C=CCN1C(=O)[C@@]2(O[C@@H](CCO)[C@H]([Si](C)(C)F)[C@H]2C)c2cc(N3C(=O)c4cccc5cccc3c45)ccc21	0.967
COc1ccccc1S(=O)(=O)N[C@H]1CC[C@H](CCNC(=O)C2CC2)O[C@@H]1CO	1.08
COC(=O)[C@H](Cc1ccccc1)NC(=O)[C@@H](N)CC(=O)O	0.894
O=c1cc(-c2ccccc2)ss1	1.06
O=C(C[C@H]1C[C@H]2c3cc(NS(=O)(=O)c4ccc(F)cc4)ccc3O[C@H]2[C@H](CO)O1)NCc1ccccn1	1.03
CC(=O)OC[C@H]1O[C@H](n2ccc(=O)[nH]c2=O)[C@@H](OC(C)=O)[C@@H]1OC(C)=O	1.06
CO[C@H]1C[C@@H](O[C@@H](O)[C@@H](O)[C@@H](O)[C@@H](O)[C@@H](O)CO)c2c(cc3cc(C)oc(=O)c3c2O)OC1=O	0.98

Structure (SMILES)	relative growth
O=C(C[C@@H]1C[C@@H]2c3cc(NS(=O)(=O)c4ccc(F)cc4)ccc3O[C@@H]2[C@@H](CO)O1)NCc1ccccc1F	1.23
C[C@@H]1CN([C@@H](C)CO)S(=O)(=O)c2ccc(C3=CCCC3)cc2O[C@H]1CN(C)S(=O)(=O)c1cn(C)cn1	1.04
COCC#Cc1cnc2c(c1)C(=O)N([C@H](C)CO)C[C@H](C)[C@@H](CN(C)C(=O)CCN1CCCCC1)O2	1.12
COc1cc(O)c2c(=O)cc(C)oc2c1CC=C(C)C	0.857
Cc1c(C)n2c3c(=O)[nH]c(=O)n(C)c3nc2n1C	1.12
O=C(C[C@@H]1C[C@@H]2c3cc(NS(=O)(=O)c4ccc(F)cc4)ccc3O[C@@H]2[C@H](CO)O1)NCCc1ccccc1	1.08
COc1oc(C(=O)NC2CCCCC2)c(-c2ccc(Cl)cc2)c1S(=O)(=O)c1ccc(Br)cc1	1.11
Cc1nc2n(c(=O)c1CCN1CCC(c3noc4cc(F)ccc34)CC1)CCC[C@H]2O	1.09
COc1cc([C@H]2Oc3cc([C@H]4Oc5cc(O)cc(O)c5C(=O)[C@@H]4O)ccc3O[C@@H]2CO)ccc1O	1.01
O=C(O)CNC(=O)c1cc2ccccc2[nH]1	1.05
COc1ccc(NC(=O)Cn2c(=O)c3c(OC)ccnc3n(C)c2=O)c(OC)c1	0.846
C[C@@H]1CN([C@H](C)CO)S(=O)(=O)c2ccc(C#CCN(C)C)cc2O[C@@H]1CN(C)C	0.917
O=C1C=C2C[C@@]3(O)COc4cc(O)ccc4C3=C2C=C1O	1.67
COc1cccc(CNC(=O)C[C@@H]2C=C[C@H](NC(=O)C3CCOCC3)[C@H](CO)O2)c1	0.968
COC1=CC(=O)C(O)=C/C1=C\C=C\c1ccccc1	1.05
CCn1nnc(NC(=O)Cc2ccccc2)n1	0.983
CC(C)Oc1ccc2c(=O)c(-c3ccccc3)coc2c1	1.15
CC(=O)Nc1c(I)cc(I)c(C(=O)O)c1I	1.05
CCCCC(CC)CCC(CC(C)C)OS(=O)(=O)[O-].[Na+] (centres undefined)	1.21
Cc1cc2cc3c(C)cc(=O)oc3c(C)c2o1	1.19

Structure (SMILES)	relative growth
CC(=O)Nc1nnc(S(N)(=O)=O)s1	1.01
O=C(Cc1ccccn1)NCC[C@@H]1CC[C@H](NC(=O)CN2CCOCC2)[C@@H](CO)O1	1.22
O=C(C[C@H]1CC[C@H]2[C@@H](COC[C@@H](O)CN2Cc2cc(F)ccc2F)O1)N[C@@H]1CCN(Cc2ccccc2)C1	1.03
Cc1ccccc1OCC(=O)NCC(=O)O	0.997
C[C@H]1CN([C@@H](C)CO)S(=O)(=O)c2ccc(C#CCN(C)C)cc2O[C@H]1CN(C)Cc1ccc(F)cc1	0.966
CC(=O)c1c(C)nn(CC(=O)O)c1C	0.866
COc1c(C)cccc1C(=O)N1CC[C@H](c2nn(CCN)c3ncccc23)C1	0.955
Cn1cnc(S(=O)(=O)N2C[C@H](O)COC[C@@H]3O[C@@H](CC(=O)N4CCN(c5ccccc5)CC4)CC[C@H]32)c1	1.08
O=C(C[C@H]1C=C[C@H](NS(=O)(=O)c2ccccc2)[C@H](CO)O1)NCc1ccncn1	1.14
CC(COc1ccccc1)N[C@H](C)[C@H](O)c1ccc(O)cc1.Cl (some centres undefined)	0.801
O=C(CCCl)NCCc1ccccc1	1.04
O=C(C[C@H]1C[C@H]2c3cc(NS(=O)(=O)c4ccccc4)ccc3O[C@H]2[C@H](CO)O1)NC1CCCCC1	1.01
COCC(=O)Nc1ccc2c(c1)CC(=O)N2C	1.08
COC(=O)c1ccc(C(=O)NN)cc1	0.867
O=C(C[C@@H]1C[C@H]2c3cc(NS(=O)(=O)c4ccc(F)cc4)ccc3O[C@H]2[C@H](CO)O1)NCc1cccc(F)c1	0.972
CCOC(=O)[C@H]1CSCCN1	0.982
O=C(C[C@H]1CC[C@@H](NC(=O)CN2CCOCC2)[C@@H](CO)O1)NCCc1ccccc1	1.16
CCCCCCNC(=O)n1cc(F)c(=O)[nH]c1=O	0.742
CC(Cc1cccc(C(F)(F)F)c1)NCCOC(=O)c1ccccc1.Cl (centres undefined)	0.904
